Assay results published in US20040229290A1 (priority 2003, published 2004).

How the values were obtained:
[1] = assay type: physicochemical; settings: pH 7
[2] = read-out: affinities of wild-type receptors for cognate ligands; cited from earlier work

## glucose-binding protein [GBP, reference compound]
[1]
  Tm: 59 °C
[2]
  Kd: 500 nM
